# Reference: ChEMBL document CHEMBL1212709, “Design of isoform-selective phospholipase D inhibitors that modulate cancer cell invasiveness” (Nat Chem Biol, 2009)
# Chains of the proteins cited; added tags and fusions are not shown. Lines headed by an entry give the natural chain unless they say otherwise; changes in a name come on top.
# UniProt O14939: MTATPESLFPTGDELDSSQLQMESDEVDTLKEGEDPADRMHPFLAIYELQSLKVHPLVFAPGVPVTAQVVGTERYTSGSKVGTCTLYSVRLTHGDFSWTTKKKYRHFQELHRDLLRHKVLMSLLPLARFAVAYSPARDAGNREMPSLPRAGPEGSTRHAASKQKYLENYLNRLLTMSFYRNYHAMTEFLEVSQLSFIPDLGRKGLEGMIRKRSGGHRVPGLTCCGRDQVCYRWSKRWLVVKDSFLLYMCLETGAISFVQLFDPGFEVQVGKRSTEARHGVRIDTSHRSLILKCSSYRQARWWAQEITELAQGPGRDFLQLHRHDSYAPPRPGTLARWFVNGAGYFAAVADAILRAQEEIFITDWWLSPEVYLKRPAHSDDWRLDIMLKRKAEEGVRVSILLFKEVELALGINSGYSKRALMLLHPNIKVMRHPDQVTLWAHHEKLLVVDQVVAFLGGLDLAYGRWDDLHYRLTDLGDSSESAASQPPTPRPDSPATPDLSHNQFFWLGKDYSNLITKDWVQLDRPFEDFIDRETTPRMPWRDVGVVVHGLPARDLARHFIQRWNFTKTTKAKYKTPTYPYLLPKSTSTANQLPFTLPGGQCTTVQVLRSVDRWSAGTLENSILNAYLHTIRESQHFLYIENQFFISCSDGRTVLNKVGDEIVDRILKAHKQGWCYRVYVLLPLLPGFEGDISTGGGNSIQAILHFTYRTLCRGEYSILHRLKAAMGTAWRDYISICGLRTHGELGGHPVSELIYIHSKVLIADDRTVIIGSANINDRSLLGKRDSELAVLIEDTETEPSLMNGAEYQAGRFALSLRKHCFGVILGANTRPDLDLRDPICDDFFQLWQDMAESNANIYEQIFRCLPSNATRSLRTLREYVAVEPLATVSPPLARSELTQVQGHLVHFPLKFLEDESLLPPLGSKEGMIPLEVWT
# Key:
# [1] = molecular target: T1, Phospholipase D2 (Homo sapiens, UniProt O14939); test: Inhibition of GFP-tagged human PLD2 expressed in human HEK293 cells assessed as decrease in phosphatidylbutanol-[d9] production after 30 mins by mass spectrometric analysis; assay type: cell-based
# [2] = molecular target: T1, Phospholipase D2; test: Inhibition of human PLD2 assessed as release of methyl-[3H]choline from choline-methyl-[3H]dipalmitoylphosphatidylcholine after 30 mins by exogenous substrate assay
# [3] = molecular target: T2, Phospholipase D1 (Homo sapiens, UniProt Q13393)
# T2 sequence (Q13393 whole entry): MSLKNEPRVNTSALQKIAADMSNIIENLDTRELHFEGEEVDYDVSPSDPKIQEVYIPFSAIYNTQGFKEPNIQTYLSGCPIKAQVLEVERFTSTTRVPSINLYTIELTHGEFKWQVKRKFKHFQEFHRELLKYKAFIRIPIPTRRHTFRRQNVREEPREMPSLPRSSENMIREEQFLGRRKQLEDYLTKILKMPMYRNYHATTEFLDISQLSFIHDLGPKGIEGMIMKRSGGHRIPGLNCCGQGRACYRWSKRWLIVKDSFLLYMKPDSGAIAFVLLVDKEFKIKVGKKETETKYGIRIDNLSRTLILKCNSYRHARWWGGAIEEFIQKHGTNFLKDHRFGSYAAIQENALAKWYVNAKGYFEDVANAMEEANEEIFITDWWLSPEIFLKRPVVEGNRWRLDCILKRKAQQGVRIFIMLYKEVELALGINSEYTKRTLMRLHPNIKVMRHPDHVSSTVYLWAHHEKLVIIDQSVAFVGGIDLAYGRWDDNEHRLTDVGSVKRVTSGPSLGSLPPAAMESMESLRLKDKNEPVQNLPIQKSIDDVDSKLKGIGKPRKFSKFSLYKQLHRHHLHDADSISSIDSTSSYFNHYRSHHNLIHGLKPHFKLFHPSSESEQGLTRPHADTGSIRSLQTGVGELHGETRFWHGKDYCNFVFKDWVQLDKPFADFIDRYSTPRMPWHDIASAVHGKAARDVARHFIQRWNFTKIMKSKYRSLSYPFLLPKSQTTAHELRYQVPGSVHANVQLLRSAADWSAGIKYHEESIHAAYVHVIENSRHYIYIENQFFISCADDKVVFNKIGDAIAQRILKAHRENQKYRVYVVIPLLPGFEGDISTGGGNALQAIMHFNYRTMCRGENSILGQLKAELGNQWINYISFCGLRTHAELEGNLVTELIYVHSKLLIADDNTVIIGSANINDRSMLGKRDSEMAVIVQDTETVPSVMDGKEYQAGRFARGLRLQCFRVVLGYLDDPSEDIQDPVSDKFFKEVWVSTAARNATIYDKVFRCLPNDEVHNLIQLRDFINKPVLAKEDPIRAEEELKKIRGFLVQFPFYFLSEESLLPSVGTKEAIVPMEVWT
# [4] = molecular target: T2, Phospholipase D1; test: Inhibition of human PLD1 assessed as release of methyl-[3H]choline from choline-methyl-[3H]dipalmitoylphosphatidylcholine after 30 mins by exogenous substrate assay
# [5] = molecular target: T3, Phospholipase D1 (Rattus norvegicus, UniProt P70496); test: Inhibition of N-terminally truncated rat PLD1 assessed as release of methyl-[3H]choline from choline-methyl-[3H]dipalmitoylphosphatidylcholine after 30 mins by exogenous substrate assay
# T3 sequence (P70496 whole entry): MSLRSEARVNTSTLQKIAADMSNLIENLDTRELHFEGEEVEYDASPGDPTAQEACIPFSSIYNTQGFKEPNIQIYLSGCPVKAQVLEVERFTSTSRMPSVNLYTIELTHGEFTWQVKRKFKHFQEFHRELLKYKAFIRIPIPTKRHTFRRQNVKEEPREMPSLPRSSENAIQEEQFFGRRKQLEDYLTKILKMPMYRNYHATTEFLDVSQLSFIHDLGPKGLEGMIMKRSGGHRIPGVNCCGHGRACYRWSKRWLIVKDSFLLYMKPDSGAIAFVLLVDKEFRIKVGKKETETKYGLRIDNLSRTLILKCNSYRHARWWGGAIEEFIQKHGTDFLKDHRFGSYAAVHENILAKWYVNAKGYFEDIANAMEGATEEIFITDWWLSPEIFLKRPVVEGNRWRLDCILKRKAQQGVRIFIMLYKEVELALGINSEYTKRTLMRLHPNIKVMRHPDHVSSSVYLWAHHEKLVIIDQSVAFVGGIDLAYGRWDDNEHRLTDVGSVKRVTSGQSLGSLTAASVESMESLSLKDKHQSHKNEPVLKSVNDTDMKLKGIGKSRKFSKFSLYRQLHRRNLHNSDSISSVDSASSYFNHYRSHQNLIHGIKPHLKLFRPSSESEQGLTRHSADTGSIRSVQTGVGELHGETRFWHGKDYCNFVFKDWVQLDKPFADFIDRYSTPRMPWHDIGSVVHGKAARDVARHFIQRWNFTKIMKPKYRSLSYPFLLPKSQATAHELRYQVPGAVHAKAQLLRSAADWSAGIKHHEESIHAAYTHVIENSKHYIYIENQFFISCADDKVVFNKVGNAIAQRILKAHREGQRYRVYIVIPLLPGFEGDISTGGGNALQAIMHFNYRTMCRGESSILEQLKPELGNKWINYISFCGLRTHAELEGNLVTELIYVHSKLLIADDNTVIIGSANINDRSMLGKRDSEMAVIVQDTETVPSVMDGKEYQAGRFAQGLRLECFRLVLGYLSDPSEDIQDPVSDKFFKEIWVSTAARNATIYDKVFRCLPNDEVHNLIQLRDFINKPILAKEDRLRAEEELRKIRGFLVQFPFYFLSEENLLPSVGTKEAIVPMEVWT
SMILES,IC50 [1] [nM],IC50 [2] [nM],IC50 [3] [nM],IC50 [4] [nM],IC50 [5] [nM]
C=Cc1ccc(C(=O)NCCN2CCC(n3c(=O)[nH]c4ccccc43)CC2)cc1,1400,,,,
O=C(NCCN1CCC2(CC1)C(=O)NCN2c1ccccc1)c1ccc2ccccc2c1,110,140,1000,5100,
O=C(NCCN1CCC(n2c(=O)[nH]c3ccccc32)CC1)[C@@H]1C[C@H]1c1ccccc1,,,,,7600
